In patent US8263079B2, “Antibodies against CSF-1R” (ImClone, LLC, priority 2010, dated 2012):

Tested on: HCC-1954 breast cells
Assay: Breast tumor combination studies, HCC-1954 xenograft
Assay type: in vivo, mouse
Settings: 40 mpk Herceptin + 40 mpk Rat IgG, TIW, vs Human IgG + Rat IgG control, P<0.0001
From the text: Inject Nu/nu mice (female, 7-8 weeks of age) subcutaneously with 1×10^7 HCC-1954 breast cells/mouse and allow tumors to reach 300 mm^3 before treatment. Randomize mice into groups of 12 and treat as follows:
Measure tumor volumes and calculate the T/C % for each treatment group as the ratio of the relative tumor volumes versus the control group. Analyze tumor volumes using RM ANOVA.

“Herceptin ®: anti-neoplastic agent; tumor-targeting agent given in combination” was tested, and the “% T/C” value was 46%.
